Test results taken from PMC4307180, “Overcoming myelosuppression due to synthetic lethal toxicity for FLT3-targeted acute myeloid leukemia therapy” (eLife, 2014).

Tested on: zebrafish embryos
Assay: Zebrafish embryonic development / WT morphology
Assay type: in vivo, Danio rerio (zebrafish)
Conditions: 3 dpf, vs. vehicle (data not shown)
Experimental: Figure 4. […] (N–P) Three categories of mpo transcription (N, normal; O, intermediate; P, severe) were defined based on the WISH results (three experiments). […] Scale bar equals 500 μm. Blue arrows indicate the pericardial edema, green arrows indicate tail shortening and curving, and red arrows indicate the FLT3-ITD AML mpo+ myeloid cells expansion. […] For all experiments: Zebrafish embryos were collected and kept in standard E3 medium at 28°C. Different concentrations of either drug were added to the E3 medium from 6 hr post fertilization (hpf) to 3 days post fertilization (dpf). Embryos treated with DMSO or 10 μM drug from 6 to 30 hpf were collected for mpo whole mount in situ hybridization (WISH) analysis. […] plasmid DNA containing FLT3/ITD sequence was microinjected into one-cell stage embryos, and the uninjected embryos were used as control. FLT3/ITD-injected embryos were treated with DMSO or 10 μM drug from 6 to 30 hpf.
Wild-type (WT) zebrafish were maintained under standard conditions, and embryos were staged as described ([He et al., 2014]). The study was approved by the Committee of the Use of Live Animals for Teaching and Research in The University of Hong Kong.

Question: Which “concentration at which pericardial defects begin” value does the source give for `CO[C@@H]1[C@H](N(C)C(=O)c2ccccc2)C[C@H]2O[C@]1(C)n1c3ccccc3c3c4c(c5c6ccccc6n2c5c31)C(=O)NC4` [PKC412, N-benzoylstaurosporine, reference compound] here?
Answer: 500 nM
